Apparent affinities of Ab-14 variants for a coronavirus HR2 peptide

The measurements come from Engelhart et al. 2022 (doi:10.1038/s41597-022-01779-4) through the FLAb antibody collection.

Target: peptide PDVDLGDISGINAS, taken from heptad repeat 2 (HR2) of SARS-CoV-2 spike.

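The library (AAYL49) carries one to three amino acid substitutions per variant, with no insertions or deletions. The scFvs were displayed on barcoded MATa yeast, the peptide on MATalpha yeast. After mating in shaken culture at 30 °C for 16 h, diploids were selected and their barcode pairs sequenced. Scores were corrected for input abundance and mapped to Kd with protein pairs of known affinity run in the same pool. Each pool was mated in three replicate cultures.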

The variants keep the light chain, the linker and the frameworks of Ab-14 (scFv order VH, three GGGGS repeats, VL).
VH: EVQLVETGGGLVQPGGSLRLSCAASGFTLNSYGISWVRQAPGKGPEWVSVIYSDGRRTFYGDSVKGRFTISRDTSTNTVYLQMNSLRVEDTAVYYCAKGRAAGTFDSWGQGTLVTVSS
VL: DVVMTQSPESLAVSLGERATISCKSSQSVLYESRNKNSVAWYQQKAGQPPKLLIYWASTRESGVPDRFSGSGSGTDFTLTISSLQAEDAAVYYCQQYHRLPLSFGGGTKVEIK

Each variant is given by its three heavy chain CDRs, as the data file delimits them; those of the parent are GFTLNSYGIS, VIYSDGRRTFYGDSVK, GRAAGTFDS. Scale: log10 of Kd in nM, estimated from mating counts; low values are strong binders. "ND" marks a missing value. The strain was present, yet no cells mated with the target were sequenced in that replicate, which points to weak or no binding. Empty control strains, which show no peptide, gave a signal in 15% of pairings with library AAYL49; the median was 4.06 and 95% of these signals were weaker than 2.83. No background was subtracted. The control count says in how many pairings with the empty strains this scFv gave a signal. Parent in this assay: reference entry 0.65, copy in this library 4.11 (one replicate of three).

For GPTLNSYGIS, VIYSDGRRDFYGDSVK, GRAAGTFDS, the assay gave ND, 3.29, ND (controls 7 of 9).
For GLTLNSYGKS, VIYSDGRRTFYGDSVK, GRAAGTFDN, the assay gave ND, 4.45, ND (controls 2 of 9).
For GFTLNPYGIS, VIYSDCRRTFYGMSVK, GRAAGTFDS, the assay gave ND, ND, ND (controls 1 of 9).
For EFTLNSNGIS, VIYSDGRRTFYGDSVK, GRAANTFDS, the assay gave 6.23, ND, 5.45 (controls 6 of 9).
For GFTLNSYGIS, VIYSDGARTVYGDSVK, GRAAGTFDS, the assay gave 2.17, 1.93, 2.30 (controls 1 of 9).
For GFTLNSYGIS, VIYSDPRRTFYGDSVK, LRDAGTFDS, the assay gave ND, ND, ND (controls 3 of 9).
For GFTSNSYGIS, VIYSDGRRTFYGDIVK, GRHAGTFDS, the assay gave 3.90, ND, 3.48 (controls 1 of 9).
For GSQLNSYGIS, VIYSDGRRTFYGDSVK, GRAAGWFDS, the assay gave 5.38, ND, 2.88 (controls 2 of 9).
For GFTLNPYGFS, VIYSDGDRTFYGDSVK, GRAAGTFDS, the assay gave ND, ND, ND (controls 0 of 9).
For GFTLNSYGIE, NIYSDGRRTFYGDSVF, GRAAGTFDS, the assay gave ND, ND, ND (controls 0 of 9).
For GFRLNSYGIS, VIYSDGRRTFYGDSVK, GRMANTFDS, the assay gave ND, ND, ND (controls 2 of 9).
For GFTLNSYGIS, VIYQDGRRTFYGDSVK, GRCAGTFDS, the assay gave ND, ND, ND (controls 1 of 9).
For GFTLNSYGIS, VIYSDGRRSFYGVSVK, GRAAGTFKS, the assay gave ND, 3.36, ND (controls 0 of 9).
For GVVLNSYGIS, VIYSDGRRTFSGDSVK, GRAAGTFDS, the assay gave ND, ND, ND (controls 2 of 9).
For GFELNSYGIS, VIYSDGRRTQYGDSVK, GRADGTFDS, the assay gave 2.28, 2.39, 2.38 (controls 7 of 9).
For GFTLNSYGIS, VIYSDGRRWFYGDSVK, GRATGRFDS, the assay gave 5.79, ND, 4.16 (controls 2 of 9).
For GFTLNSYGIS, VNYSDGRRGFYGDSVK, GMAAGTFDS, the assay gave ND, ND, ND (controls 0 of 9).
For GFTLNSYGIS, VIYSDGRRTFYQDSVK, RRAAGTFDS, the assay gave 2.38, 2.30, 2.53 (controls 1 of 9).
For GFTWQSYGIS, VIYSDGRRTFYGDSVK, GRAAGTFSS, the assay gave ND, ND, ND (controls 0 of 9).
For GFTLNVYGIS, VIYRDGRRTFYGDSVK, GRAAITFDS, the assay gave 5.62, ND, ND (controls 0 of 9).
For GFTLNSYGIS, HIYSDGRRTFYGDTVK, GRAAGTHDS, the assay gave ND, 4.98, ND (controls 2 of 9).
For GFTLNSYGIS, VIMSDGRRTFYGDSVT, GRAQGTFDS, the assay gave ND, ND, ND (controls 1 of 9).
For GFTLNSYGIS, VIYSDGRRTFYYDSVK, GRARDTFDS, the assay gave ND, ND, ND (controls 2 of 9).
For GFTLNSDGIK, VIYSDGRRTFYGMSVK, GRAAGTFDS, the assay gave ND, ND, ND (controls 1 of 9).
For GFTLMSPGIS, VIYSDGRRTFYGDSVK, GRAAGTFDA, the assay gave ND, ND, ND (controls 0 of 9).
For GFTLNSKGIS, VIYHDGRRTFYGDSVK, RRAAGTFDS, the assay gave ND, ND, ND (controls 0 of 9).
For GFTLNSYGIS, VIYMDGRRTFYGDGVK, GVAAGTFDS, the assay gave ND, ND, 4.06 (controls 5 of 9).
For GFTLNSYGIS, VILSDGRRTFYGDSVK, CIAAGTFDS, the assay gave ND, ND, ND (controls 0 of 9).
For GSTLNSYGIS, VIYSDGPRTFYGDSVD, GRAAGTFDS, the assay gave ND, ND, ND (controls 0 of 9).
For GFTLNSYSIS, VIYSDGRRTFYGDSVK, GRAAGTFDS, the assay gave ND, 4.48, ND (controls 6 of 9).
For GFTLNSYGIS, VIYSDGRRGFYGDSVK, TRAAGQFDS, the assay gave ND, ND, ND (controls 0 of 9).
For GFTLISYGIS, VIYSDGDRTFYGDSVK, GRAAWTFDS, the assay gave ND, ND, ND (controls 0 of 9).
For GFTLPSYGIS, VIYSDGRHTFWGDSVK, GRAAGTFDS, the assay gave ND, ND, ND (controls 0 of 9).
For GFTLNSYGIS, VPYSDGRRTFYGDHVK, GRAAGTADS, the assay gave ND, ND, 2.64 (controls 1 of 9).
For GFTLNSYGIG, FIYSDGRRTFYGDSVK, GRAAGTFDS, the assay gave ND, ND, ND (controls 0 of 9).
For GFTLNSYGIS, VIYSDGKRTFYGDSDK, GRAAGTFDS, the assay gave ND, ND, ND (controls 0 of 9).
For GFTLNSYGIS, VIYSDGCRTFYGDSVK, GRAIGTFDM, the assay gave 1.93, 1.73, 2.38 (controls 1 of 9).
For GFTLNSYGIF, RIYSDGRRTFMGDSVK, GRAAGTFDS, the assay gave ND, 4.08, ND (controls 2 of 9).
For GFTCNSYGIS, VIYSDGRRTFYGDSVK, GRAAGTFAS, the assay gave ND, ND, ND (controls 2 of 9).
For GNTLNSYGDG, VIYSDGRRTFYGDSVK, GRAAGTFDS, the assay gave ND, ND, ND (controls 0 of 9).
For GFTLPSYGKS, VIYSDGRRTFYGDSVK, GRAAGQFDS, the assay gave ND, ND, ND (controls 2 of 9).

The 4 strongest on average among those seen in every replicate, once more:

| CDR-H1 | CDR-H2 | CDR-H3 | log10 Kd (nM) by replicate | control signals |
|---|---|---|---|---|
| GFTLNSYGIS | VIYSDGCRTFYGDSVK | GRAIGTFDM | 1.93, 1.73, 2.38 | 1/9 |
| GFTLNSYGIS | VIYSDGARTVYGDSVK | GRAAGTFDS | 2.17, 1.93, 2.30 | 1/9 |
| GFELNSYGIS | VIYSDGRRTQYGDSVK | GRADGTFDS | 2.28, 2.39, 2.38 | 7/9 |
| GFTLNSYGIS | VIYSDGRRTFYQDSVK | RRAAGTFDS | 2.38, 2.30, 2.53 | 1/9 |